Experimental data from article PMC6615598, “Novel antibiotics effective against gram-positive and -negative multi-resistant bacteria with limited resistance” (PLoS Biology, 2019).

Legend:
[1] = tested on: zebrafish embryos; assay: Zebrafish embryo quantitative toxicity (size, curvature, cardiac frequency)
Method: Adult fish were kept in 30l aquariums at 27°C ± 2°C under constant light/dark (14:10 h) cycles. The day before the embryos were used, males and females were placed in breeding tanks. The fish were left undisturbed overnight, and the eggs were collected 1 h after the light was turned on the next morning. When the injections of the cyclic peptides started, embryos were transferred into microtiter plates placed at 28°C for 24 h. Peptides were prepared at 1, 10, 20, 40, and 100 mM concentrations in water, and injections were performed into the caudal vein. Each peptide was injected at 1 nl for all concentrations except 100 mM, when 2 nl was injected. Control embryos were injected with 1 nl of water. When the peptides were injected, analysis determined embryo sizes, curvatures, and cardiac frequencies. Peptide concentrations were checked in 10 embryos, and these were divided among 96-well plates and analyzed under a microscope or using a magnifying glass. Analysis was done for 9 qualitative endpoints in order to determine mortality rates and the frequencies of toxic effects, which include cardiac bleeding, blood flow defects, cerebellar bleeding, necrosis, pericardia edema, otic vesicle, and motility and brain defects. […] To do this, each peptide was prepared in 0.9% NaCl and injected into the tail veins of 3 male Swiss mice at 1.5, 2.0, 2.5, or 5.0 mg.kg^−1, corresponding, respectively, to calculated blood concentrations of approximately 18.5, 24.5, 31, and 62.0 μM. Each animal was checked for mortality twice per day. Clinical signs were recorded daily, including any reduced motor activity, piloerection, and redness in the ear lobe, cyanosis, protruding eyeballs, slow or labored breathing, loss of response in the rear legs, convulsions, or death. Body weight was recorded at least once before the beginning of the treatment period and again on the day of treatment, with the satellite group checked once during the observation period. For the groups of mice observed for 7 d, food consumption was measured once during the study. All the animals were euthanized on the day after treatment, except for 4 satellite animal groups that were euthanized after a 7 d observation period. All then underwent complete macroscopic and microscopic post-mortem examinations. Hematology investigations were performed before necropsy for all animals except the satellite ones, whose blood biochemistry parameters were determined before euthanasia. For all injected doses, measurements were done 2 d before necropsy of various hematology parameters. These included white blood cells counts, erythrocytes counts, hemoglobin concentration, hematocrit, mean corpuscular volume, mean corpuscular hemoglobin, mean cell volume, packed cell volume, mean cell hemoglobin concentration, mean cell hemoglobin, thrombocytes, leucocytes, reticulocytes, neutrophils, eosinophils, basophils, lymphocytes, large unstained cells, monocytes, prothrombin time, fibrinogen, activated partial thromboplastin time, potassium, and creatinine. After euthanasia, selected organs were weighed, and selected tissue was preserved for microscopic examination. The human erythrocyte toxicity assays were performed as described by Solecki and colleagues. Human blood was collected from the Rennes Etablissement Français du Sang. Red blood cells (RBCs) were centrifuged at room temperature to 1,400 rpm for 10 min. Supernatant was discarded and RBCs recovered into 1X PBS buffer. RBCs were centrifuged again, and the pellets resuspended in 1X PBS. RBCs were washed until the supernatant was clear. Of that suspension, 75 μl was mixed with 75 μl of 2-fold serial dilutions of purified peptide in a microtiter plate, from 0.5 to 512 μM in 1X PBS. The plates were incubated for 2 h at 37°C. […] A solution of water 1% Triton X-100 was a positive control with all RBCs lysed, and the hemoglobin release was set at 100%.

[2] = tested on: zebrafish embryos; assay: Zebrafish embryo qualitative toxicity (mortality, toxic defects); assay type: in vivo; settings: injection of 1 or 10 mM; 9 qualitative endpoints
Method: Control embryos were injected with 1 nl of water. […] Each animal was checked for mortality twice per day. […] RBCs were washed until the supernatant was clear. […] RBCs in PBS were a negative control without hemolysis.
Supplementary file pbio.3000337.s009.docx: S3 Table Qualitative toxicity assays of the 4 peptides on zebrafish embryos. Within a concentration range of 1 to 100 mM, 9 endpoints were analyzed to determine mortality rates and the frequency of various toxic effects (cardiac hemorrhage, blood flow defects, cerebellar hemorrhage, necrosis, pericardia edema, otic vesicle defects, motility defects, and brain defects). No toxicity was observed after injection of each of the 4 peptides and pseudopeptides at 1 or 10 mM concentrations, nor for those injected with Nisin or just water. However, 100% mortality was observed after injection of 100 mM of any of the peptides or pseudopeptides. CP, cumulative percentage of toxic defects; F, frequency; N, number of treated embryos; P, percentage. (DOCX) Click here for additional data file.

[3] = Stability in human serum (half-life); assay type: in vitro ADME; settings: 25% human serum, pre-incubated 15 min at 37°C, peptide 10^−4 M, RP-HPLC peak areas, mean of biological triplicates
Method: (§1) (10−4 M final concentrations). At selected time intervals, 100 μl of reaction mixture was collected, quenched by 200 μl 95% EtOH, and adjusted at pH 2 to prevent peptide adsorption to serum proteins. […] Supernatants were analyzed by RP-HPLC on an Xbridge C18 column with a linear gradient of water, 0.08% TFA, and acetonitrile with 1% TFA. HPLC peak areas were used to calculate the percentages of intact compound remaining at the various time points. MIC and MBC values were determined in triplicate in many ESKAPE clinical isolates, including a dozen MDR S. aureus, by the broth microdilution method. Peptidomimetics and antibiotics were assayed in a concentration range of 1 to 128 μM. The bacterial inoculum (5 × 10^5 colony-forming units [CFUs]/well) was prepared in MHB or CAMHB (150 μl). A Biotek Synergy 2 spectrophotometer was used to record the results after 18–20 h incubation at 35°C (±2°C). […] After every hour of culture for 4 h, serial dilutions were plated on BHI plates and incubated overnight at 37°C, and then the CFUs were counted and expressed as log CFU/ml. Phosphate-buffered saline (PBS)-exposed S. aureus MRSA was included as a control.
(§2) Supplementary file pbio.3000337.s013.docx: S7 Table Peptide half-lives in human and mouse sera. […] Peptide amounts and half-lives were determined by HPLC. Experiments were conducted on 25% human or mouse sera. Values are shown in minutes. […]

[4] = Stability in mouse serum (half-life); assay type: in vitro ADME; settings: 25% mouse serum, pre-incubated 15 min at 37°C, peptide 10^−4 M, RP-HPLC peak areas, mean of biological triplicates
Method: as §1, §2

[5] = 1 nl of 10 mM injected into caudal vein

| Compound | Embryo curvature, Mean ([1]; 1 nl of 1 mM injected) | Embryo curvature, Mean ([1]; 1 nl of 10 mM injected) | Embryo size, Mean [1, 5] | Embryo curvature, Mean ([1]; 1 nl of 20 mM injected) | Toxicity in zebrafish embryos [2] | Half-life in human serum [3] | Half-life in mouse serum [4] | Cardiac frequency, Mean ([1]; 1 nl of 1 mM injected) | Embryo size, Mean ([1]; 1 nl of 1 mM injected into caudal vein) | Cardiac frequency, Mean ([1]; 1 nl of 10 mM injected) | Cardiac frequency, Mean ([1]; 1 nl of 20 mM injected) | Embryo size, Mean ([1]; 1 nl of 20 mM injected into caudal vein) | Cardiac frequency, Mean ([1]; 1 nl of 40 mM injected) | Embryo curvature, Mean ([1]; 1 nl of 40 mM injected) | Embryo size, Mean ([1]; 1 nl of 40 mM injected into caudal vein) |
| --- | --- | --- | --- | --- | --- | --- | --- | --- | --- | --- | --- | --- | --- | --- | --- |
| CC(C)[C@@H]1NC(=O)[C@H](CCCNC(=N)N)NC(=O)[C@H](CCCNC(=N)N)NC(=O)[C@H](Cc2c[nH]c3ccccc23)NC(=O)[C@H](Cc2ccccc2)NC(=O)[C@H](Cc2ccccc2)NC(=O)[C@H](CCCCN)NC1=O [Pep18] | 179 ° | 179 ° | 2154 | 179 ° |  |  |  |  |  |  |  |  |  |  |  |
| nisin | 179 ° | 179 ° | 2102 | 179 ° | No toxicity | 22 ± 5 min | 7 ± 2 min | 29 heart beat/10 sec | 2154 | 30 heart beat/10 sec | 30 heart beat/10 sec | 2099 | 30 heart beat/10 sec | 179 ° | 2201 |
